# Where two headings read alike, the source gives them in different places.
# Tested on: M17/Adr
compound,measurement,setting,value
CC1=CC(=O)[C@@H](O)[C@]2(C)[C@H]3[C@@]4(O)OC[C@@]35[C@@H](C[C@@H]12)OC(=O)C[C@H]5[C@@H](C)[C@H]4O [Chaparrinone],zone of inhibition M17/Adr,5 ug/disk,700 ZONE UNITS
"CC1=CC(=O)C(O)C2(C)C1CC1OC(=O)C(O)C3C(C)C(O)C4(O)OCC13C42 (stereo not shown) [Glaucarubolone, glaucarubolone]",zone of inhibition M17/Adr,25 ug/disk,>950 ZONE UNITS
(−)-Peninsularinone,zone of inhibition M17/Adr,0.25 ug/disk,420 ZONE UNITS
Glaucarubinone,zone of inhibition M17/Adr,,— 250 220 ZONE UNITS

# Reference: patent publication US6573296B2, “Therapeutic quassinoid preparations with antineoplastic, antiviral, and herbistatic activity” (priority 1997, dated 2003)
